The structures appear in SMILES notation. This is a selection; strong and weak results do not stand in their true shares. Inconclusive results are not listed. Entries that show only a call come without a potency. The source made the active and inactive calls. The call rests on the fitted dose curve; in most records, active means well fitted cell-killing curve with a large enough effect; inconclusive means small, poorly fitted or top-dose-only effect, or effect the other way; inactive means flat fitted curve, though single readings scatter.
Potency means the concentration at half of the fitted maximal effect.

A short description of this assay: qHTS assay for MDR1-selective chemotherapeutics: Primary screen using the drug-selected MDR subline cells KB-V1. Further: nearly all actives have a fitted effect of over 60% in size. The conditions noted are these: KB-V1 MDR cells viability, CellTiter-Glo, 72 h; series mostly up to 46.1 µM. An excerpt: A prime difficulty in effectively treating cancer is the development of cellular resistance to multiple structurally unrelated anticancer drugs, a phenomenon known as multidrug resistance (MDR). […] Numerous strategies to overcome P-gp-mediated MDR have been explored, including the design of drugs that evade recognition and efflux, and development of inhibitors to block efflux and restore drug accumulation. […] An alternative approach is to exploit resistance by identifying drugs that target MDR cells over the non-resistant parental cells from which they were selected. […] The development of MDR1-selective agents represents a new strategy for resolving multidrug resistance, as it remains a long-standing clinical challenge for cancer chemotherapy.
Our goal is to identify compounds that selectively kill P-gp-expressing MDR cells. We will identify MDR1-selective compounds by comparing toxicity of compounds in the screening library against parental, drug-naive (KB-3-1) adenocarcinoma cells as well as their drug-selected MDR sub-line (KB-V1). The differential toxicity of compounds against these two cell lines will be used to identify MDR1-selective compounds, whose cytotoxicity is potentiated, rather than diminished, by P-gp expression. This assay will be utilized to conduct a quantitative high-throughput screen (qHTS) in collaboration with the NIH Chemical Genomics Center to identify selective agents, and probe hits arising from the screen will be validated using secondary assays and characterized through a well-established follow-up research program. This screen was run against the entire NCGC library collection of about 400,000 compounds.
NIH Molecular Libraries Probe Production Network [MLPCN]
NIH Chemical Genomics Center [NCGC]
PI: Michael Gottesman, National Cancer Institute, NIH
Briefly, 5 microL of media containing either KB-V1 cells (columns 1-2, 4-48) are dispensed into Greiner white, treated solid-bottom 1536-well assay plates (media-only control is added to column 3). Compounds are then transferred via Kalypsys pin tool equipped with 1536-pin array (10 nL slotted pins, V&P Scientific, San Diego, CA). Following addition of compound, the plates are incubated at 37 degrees C for 72 hours. CellTiter-Glo (2.5 µL/well) is then added, and the plates are read in a ViewLux reader (Perkin-Elmer, clear luminescence filter, 1 second exposure, 1x binning) following a 10 minute incubation. All cells are dispensed in DMEM phenol-red free media containing 10% FBS.
Library plates were screened starting from the lowest and proceeding to the highest concentration. Vehicle-only plates, with DMSO being pin-transferred to columns 5-48, will be inserted uniformly at the beginning and the end of each library in order to monitor and record any shifts in the background, which can be affected by reagent dispensers or loss in enzyme activity over time. Screening data will be corrected, normalized, and concentration-effect relationships will be derived by using publicly-available NCGC, NCATS curve fitting algorithms (http://ncgc.nih.gov/pub/openhts).
In general terms: Quantitative high-throughput screening tests each substance at several concentrations.
Take `COc1cccc([N+](=O)[O-])c1[N+](=O)[O-]`: the Potency result was “inactive”.

Consider `c1nnnn1CCn1cnnn1`, for which the Potency result is “inactive”.

In the case of `CC(C)C(=O)NC(Sc1ccccc1)C(Cl)(Cl)Cl` (stereo unspecified), the Potency result is “inactive”.

Regarding `O=P(Nc1nccs1)(c1ccccc1)c1ccccc1`, the Potency entry is “inactive”.

In the case of `C(Cc1nn[nH]n1)Cc1nn[nH]n1`, the Potency entry was “inactive”.

Take `Nc1ccc([As](=O)(O)c2ccc([N+](=O)[O-])cc2)cc1`: the Potency entry is “inactive”.

Take `O=C(OC1CN2CCC1CC2)c1cccc(Cl)c1` (stereo unspecified): the Potency entry was “inactive”.

On to `O=[N+]([O-])c1ncn(CCn2cnc([N+](=O)[O-])n2)n1`, for which the Potency entry was “inactive”.

With `CC(=O)NC(SC(=S)N(C)C)C(Cl)(Cl)Cl` (stereo unspecified), the Potency entry is “inactive”.

Take `O=[As](O)(c1ccccc1)c1ccc(O)cc1`: the Potency entry was “inactive”.

As to `O=P(Nc1nc2ccccc2s1)(c1ccccc1)c1ccccc1`, the Potency result is “inactive”.

For `C[C@H]1OP(=O)(Oc2ccccc2)[C@H](O)[C@H](O)[C@H]1N=[N+]=[N-]` (stereo partly specified), the Potency entry was “inactive”.

Turning to `COc1ccc(N)c([N+](=O)[O-])c1[N+](=O)[O-]`, the Potency result is “inactive”.

Turning to `Nc1ccc(CCCCOc2ccccc2)cc1`, the Potency entry is “inactive”.

Consider `CN(C)C1(CNC(=O)c2ccc(Cl)c(S(N)(=O)=O)c2)CCCCC1`, for which the Potency result was “inactive”.

Regarding `CC(NC(=O)COC(=O)C(O)(c1ccccc1)c1ccccc1)c1ccccc1` (stereo unspecified), the Potency result was “inactive”.

Regarding `CN(C)C(=O)Oc1noc2ccccc12`, the Potency result was “inactive”.

In the case of `COC(=O)c1cc2c(s1)N=C(c1ccccc1)N(C)P2(=O)N1CCOCC1` (stereo unspecified), the Potency entry is “inactive”.

As to `CC(=O)NC(SC(=S)N(CC(C)C)CC(C)C)C(Cl)(Cl)Cl` (stereo unspecified), the Potency result was “inactive”.

Take `O=C(OC1CN2CCC1CC2)c1ccccc1` (stereo unspecified): the Potency result is “inactive”.

In the case of `CCC(=O)N1C2C3N(C(=O)CC)C1C1N(C(=O)CC)C(C(N1C(=O)CC)N3C(=O)CC)N2C(=O)CC`, the Potency result is “inactive”.

Turning to `O=P1(N(CCCl)CCCl)OCCC2CCCCN21` (stereo unspecified), the Potency entry was “inactive”.

For the compound `O=C(NC1CCS(=O)(=O)C1)NP(=S)(Oc1ccccc1)Oc1ccccc1` (stereo unspecified), the Potency result was “inactive”.

With `c1ccc(-c2nn[nH]n2)c(-c2nn[nH]n2)c1`, the Potency result is “inactive”.

For `O=[N+]([O-])c1cc([N+](=O)[O-])c2nc[nH]c2c1`, the Potency entry was “inactive”.

As for `Cc1ccc(NP(=O)(Oc2cccc(C)c2)Oc2cccc(C)c2)nc1`, the Potency entry is “inactive”.

Take `CC(=O)Nc1ccc([As](=O)(O)O)c(O)c1`: the Potency entry is “inactive”.

As to `CC(=O)Nc1ccc(Oc2c([N+](=O)[O-])cc([N+](=O)[O-])cc2[N+](=O)[O-])cc1`, the Potency result is “inactive”.

In the case of `CC(=O)c1ccc(N2CC2c2ccncc2)cc1` (stereo unspecified), the Potency result was “inactive”.

Consider `N#C/C(=C\c1ccc(N(CCBr)CCBr)cc1)C(N)=O`, for which the Potency is active: 18.4 µM.

As to `COC(=O)C1(C)COP(=O)(NCc2ccccc2)OC1` (stereo unspecified), the Potency result is “inactive”.

For the compound `Cc1ccccc1CN(C)C(=O)COC(=O)C(O)(c1ccccc1)c1ccccc1`, the Potency entry was “inactive”.

In the case of `C[C@@H]1C=CCP(=O)(Oc2ccccc2)O1` (stereo partly specified), the Potency result is “inactive”.

As for `CCc1cc(O)c([N+](=O)[O-])c(C)c1[N+](=O)[O-]`, the Potency entry was “inactive”.

For `CC(C)(C)C(=O)NC(Sc1ccccc1)C(Cl)(Cl)Cl` (stereo unspecified), the Potency entry was “inactive”.

For `O=P1(Nc2nc3ccc(Cl)cc3s2)COc2ccccc2O1` (stereo unspecified), the Potency entry was “inactive”.

Consider `CCOc1ccc(C2=NCC(CBr)S2)cc1` (stereo unspecified), for which the Potency entry was “inactive”.

On to `O=[N+]([O-])C1C(O)C(O)C([N+](=O)[O-])C(O)C1O` (stereo unspecified), for which the Potency entry was “inactive”.

As to `Nc1cc(N)c2nonc2c1[N+](=O)[O-]`, the Potency result was “inactive”.

For `CC(C)CC(=O)NC(Sc1ccc(Cl)cc1)C(Cl)(Cl)Cl` (stereo unspecified), the Potency result was “inactive”.

As for `Oc1ccccc1CNc1ccccn1`, the Potency entry was “inactive”.

Regarding `O=C(NC(Sc1ccncn1)C(Cl)(Cl)Cl)c1ccccc1` (stereo unspecified), the Potency result was “inactive”.

Take `COc1ccccc1OP(=O)(Nc1ccc(C)cn1)Oc1ccccc1OC`: the Potency entry is “inactive”.

As for `Cc1ccc(OP(=O)(Nc2nccs2)Oc2ccc(C)cc2)cc1`, the Potency entry is “inactive”.

For `CN1CCCC(OC(=O)C(c2ccccc2)c2ccccc2)C1` (stereo unspecified), the Potency result is “inactive”.

With `Clc1ccc(Cl)c(NC2=NCC(CBr)S2)c1` (stereo unspecified), the Potency entry was “inactive”.

`NC(=O)c1cc([N+](=O)[O-])cc([N+](=O)[O-])c1N`: the Potency result is “inactive”.

For the compound `O=[N+]([O-])c1cc2c(cc1[N+](=O)[O-])OCO2`, the Potency entry is “inactive”.

Regarding `Cc1ccc(N/C(=N/P(=O)(N2CCOCC2)N2CCOCC2)N2CCOCC2)cc1`, the Potency entry is “inactive”.

Turning to `CCN(N=Nc1nonc1N)c1nonc1N`, the Potency entry was “inactive”.

With `Nc1cccc2ccc([As](=O)(O)O)cc12`, the Potency result was “inactive”.

For `Cc1cc(SC(NC(=O)c2ccc(F)cc2)C(Cl)(Cl)Cl)ncn1` (stereo unspecified), the Potency entry was “inactive”.

Regarding `CCOP(=O)(Nc1ccccc1)OCC`, the Potency entry is “inactive”.

As to `Cc1ccc(NP(=O)(Oc2ccccc2F)Oc2ccccc2F)nc1`, the Potency result was “inactive”.

For `CC(=O)Nc1ccc([As](=O)(O)O)cc1`, the Potency entry is “inactive”.

`O=C(O)c1ccccc1[As](=O)(O)O`: the Potency entry was “inactive”.

Consider `CCCC1OP(N)(=O)OCC1CC` (stereo unspecified), for which the Potency result was “inactive”.

With `CN(C)P(=O)(N(C)C)n1c(Nc2ccccc2)nnc1-c1ccccc1`, the Potency result was “inactive”.

For the compound `COC(=O)C1(C)COP(=O)(Nc2ccccc2)OC1` (stereo unspecified), the Potency entry is “inactive”.

Take `O=[N+]([O-])c1cccc(NC2=NCC(CBr)S2)c1` (stereo unspecified): the Potency entry is “inactive”.

`O=C(O)CNc1ccc([As](=O)(O)O)cc1`: the Potency entry was “inactive”.

(Values after PubChem BioAssay AID1347076 (National Center for Advancing Translational Sciences (NCATS), 2019).)
